Source: ChEMBL document CHEMBL3400112, “Design, syntheses, and pharmacological characterization of 17-cyclopropylmethyl-3,14β-dihydroxy-4,5α-epoxy-6α-(isoquinoline-3'-carboxamido)morphinan analogues as opioid receptor ligands” (Bioorg Med Chem, 2015)

What was measured:
Mus musculus [1] = organism: Mus musculus; assay: Selectivity ratio of Ki for mouse KOR to Ki for mouse MOR
Mus musculus [2] = organism: Mus musculus; assay: Selectivity ratio of Ki for mouse DOR to Ki for mouse MOR

SMILES | Ratio Ki (Mus musculus [1]) | Ratio Ki (Mus musculus [2])
O=C(N[C@H]1CC[C@@]2(O)[C@H]3Cc4ccc(O)c5c4[C@@]2(CCN3CC2CC2)[C@H]1O5)c1cc2ccccc2c(Cl)n1 | 63 | 8.6
O=C(N[C@H]1CC[C@@]2(O)[C@H]3Cc4ccc(O)c5c4[C@@]2(CCN3CC2CC2)[C@H]1O5)c1ncc2ccccc2c1O | 73 | 8.9
